Experimental findings from ChEMBL document CHEMBL4368878 (Medchemcomm, 2018) are described below.

By UniProt entry, the sequences of proteins in these tests, tags left out.
UniProt P21554, whole entry: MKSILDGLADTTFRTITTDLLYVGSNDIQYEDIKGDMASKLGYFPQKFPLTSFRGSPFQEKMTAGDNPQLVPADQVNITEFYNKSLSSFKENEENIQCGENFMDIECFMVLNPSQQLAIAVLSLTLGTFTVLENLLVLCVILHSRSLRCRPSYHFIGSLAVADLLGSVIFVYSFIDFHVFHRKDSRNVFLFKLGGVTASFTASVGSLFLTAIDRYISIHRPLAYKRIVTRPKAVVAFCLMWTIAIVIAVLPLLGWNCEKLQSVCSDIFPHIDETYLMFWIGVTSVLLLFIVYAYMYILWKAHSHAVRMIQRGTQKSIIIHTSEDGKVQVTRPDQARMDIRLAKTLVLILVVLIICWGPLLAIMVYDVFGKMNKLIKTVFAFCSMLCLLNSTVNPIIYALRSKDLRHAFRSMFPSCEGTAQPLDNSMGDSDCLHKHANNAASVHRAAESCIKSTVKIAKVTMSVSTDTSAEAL
UniProt P34972, whole entry: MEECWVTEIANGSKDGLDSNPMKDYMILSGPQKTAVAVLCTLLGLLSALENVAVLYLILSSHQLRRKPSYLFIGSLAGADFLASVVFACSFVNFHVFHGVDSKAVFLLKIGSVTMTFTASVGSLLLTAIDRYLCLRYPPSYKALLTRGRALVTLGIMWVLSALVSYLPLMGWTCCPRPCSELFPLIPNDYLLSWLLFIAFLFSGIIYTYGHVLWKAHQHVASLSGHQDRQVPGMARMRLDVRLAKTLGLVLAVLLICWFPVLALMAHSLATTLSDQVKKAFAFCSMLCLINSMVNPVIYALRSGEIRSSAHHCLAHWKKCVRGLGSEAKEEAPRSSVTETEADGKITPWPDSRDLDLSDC

SMILES strings stand for the structures. This is a selection: effects in other tests are not listed, and their absence says nothing. Some results are limits rather than exact numbers.

Series [1] addresses T1, Cannabinoid receptor 1 (Homo sapiens, UniProt P21554). Put plainly: Displacement of [3H]CP55940 from recombinant human CB1 receptor expressed in HEK293 cell membranes at 10 uM measured after 90 mins relative to control. The settings on record: hek293, 1.5 h.
In the next series the target is Cannabinoid receptor 2 (Homo sapiens, UniProt P34972). Put plainly: Displacement of [3H]CP55940 from recombinant human CB2 receptor expressed in HEK293 cell membranes measured after 90 mins. The procedure, abridged:
(§1)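 Membranes from HEK-293 cells stably expressing human recombinant CB1 (Bmax 2.5 pmol/mg protein) or CB2 (Bmax 4.7 pmol/mg protein). [3H]-CP-55,940 was used at 0.14 nM for CB1 (Kd 0.18 nM) and 0.084 nM for CB2 (Kd 0.31 nM), with increasing test concentrations, 90 min at 30 °C. Non-specific binding was set with 10 μM WIN 55212-2. Ki came from IC50 via Cheng–Prusoff; n ≥ 3, mean ± SEM. SI = CB1 Ki / CB2 Ki.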
In general terms: Loss of bound radioactivity is the signal in a displacement assay; it reports binding, not function.

Series [2] concerns the target T1, Cannabinoid receptor 1. Put plainly: Displacement of [3H]CP55940 from recombinant human CB1 receptor expressed in HEK293 cell membranes measured after 90 mins. A digest of the protocol: as §1

With `Cc1ccc2c(c1)nc(Cn1nnc3ccccc31)n2CCN(C)C`, the inhibition (INH) at Cannabinoid receptor 1 [1] worked out at 19%. Besides, the Ki at Cannabinoid receptor 2 and on Cannabinoid receptor 1 [2] was more than 10 µM each time.

By Ki is commonly meant a measure of affinity in units of concentration, obtained from inhibition or displacement.
